Experimental data from patent publication US4450173A, “Compounds and method for treatment or prophylaxis of cardiac disorders” (American Hospital Supply Corporation, priority 1982, dated 1984).
Counter-ions that a name gives are not always drawn.

Sequences of proteins named here, by UniProt entry; tags and fusion partners are left off.
UniProt Q8K4Z4, whole entry: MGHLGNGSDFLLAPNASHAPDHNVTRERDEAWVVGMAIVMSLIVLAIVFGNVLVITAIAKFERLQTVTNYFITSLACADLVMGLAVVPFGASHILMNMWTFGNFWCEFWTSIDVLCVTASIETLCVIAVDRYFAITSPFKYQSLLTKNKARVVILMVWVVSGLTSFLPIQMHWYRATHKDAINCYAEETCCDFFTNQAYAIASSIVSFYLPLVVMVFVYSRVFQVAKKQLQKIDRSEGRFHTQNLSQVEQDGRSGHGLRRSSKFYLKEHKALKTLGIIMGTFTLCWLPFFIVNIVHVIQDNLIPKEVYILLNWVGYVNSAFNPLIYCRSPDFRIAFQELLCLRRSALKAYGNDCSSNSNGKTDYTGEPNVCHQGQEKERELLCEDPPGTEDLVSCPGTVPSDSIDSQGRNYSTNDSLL

Target: guinea pig tracheal strips (Cavia porcellus, UniProt Q8K4Z4)
Type: cell-based
Settings: carbachol tension, isoproterenol, 60 minute incubation, pA2 = -log KB
Description: Each tissue was suspended between a fixed glass rod and a Statham® Universal Transducer connected to a Beckman® recorder. Atria were allowed to beat spontaneously under a loading tension of approximately 0.5 gm. Intrinsic depressant for stimulant activity was determined for each compound by progressively increasing concentrations in the tissue baths at 60-minute intervals. Tissues were not washed between increments. […] Changes in rate in response to isoproterenol were measured in the absence and presence of test compounds. Spiral strips of guinea pig trachea were suspended under 5 gm resting tension and incubated with phentolamine, tropolone and cocaine. Active tension was generated by addition of carbachol (3.0×10^-7 M) and decreases in tension in response to isoproterenol were quantitated. Cumulative concentration-response curves were produced with isoproterenol both before and after 60 minute incubation of test compounds with atria and trachea. The blocking potency of test compounds was estimated by computing pA2 values (-log KB) by the method of Furchgott, The Pharmacological Differentiation of Adrenergic Receptors, Ann. […] A ratio greater than one indicates cardioselectivity.

| pA2 Trachea | Compound |
| --- | --- |
| 4.9 | CCOC(=O)CCNCC(O)COc1ccc(OC)cc1 (centres unmarked) [XXV] |
| 6.2 | CCOC(=O)CNCC(O)COc1cccc2ccccc12 (centres unmarked) [Example II, Ethyl N-[[2-Hydroxy-3-(1-naphthoxy]propyl]glycinate Oxalate Hemihydrate] |
